Literature values, collected in patent US20230001221A1, “Methods of Treating Cancer with Alternating Electric Fields, Checkpoint Inhibitors, and Combination Chemotherapy” (Novocure GmbH, priority 2021, published 2023).

System: human and murine pancreatic cancer cell lines
Details: in-vitro, TTFields combined with the chemotherapy

## O=c1[nH]cc(F)c(=O)[nH]1 [5-FU, fluorouracil]
  cytotoxicity when combined with TTFields: enhanced cytotoxicity
